Results taken from patent US10479819B2 (priority 2014, dated 2019).
pEC50: −log10 of the molar value.

Amino acid sequences for entries named in this document (tags omitted). Residues count along the entry.
UniProt P43220, 24-463: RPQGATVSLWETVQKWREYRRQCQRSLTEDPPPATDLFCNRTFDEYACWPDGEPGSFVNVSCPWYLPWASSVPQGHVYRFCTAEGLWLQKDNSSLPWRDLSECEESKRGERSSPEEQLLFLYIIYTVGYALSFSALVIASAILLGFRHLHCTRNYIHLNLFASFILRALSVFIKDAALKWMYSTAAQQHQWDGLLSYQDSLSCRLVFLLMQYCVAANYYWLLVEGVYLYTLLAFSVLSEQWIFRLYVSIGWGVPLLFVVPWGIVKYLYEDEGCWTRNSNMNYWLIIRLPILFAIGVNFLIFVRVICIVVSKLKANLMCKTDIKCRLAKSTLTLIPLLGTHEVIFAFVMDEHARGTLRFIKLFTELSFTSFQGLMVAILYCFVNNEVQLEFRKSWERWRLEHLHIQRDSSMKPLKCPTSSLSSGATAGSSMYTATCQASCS
UniProt P47871, 26-477: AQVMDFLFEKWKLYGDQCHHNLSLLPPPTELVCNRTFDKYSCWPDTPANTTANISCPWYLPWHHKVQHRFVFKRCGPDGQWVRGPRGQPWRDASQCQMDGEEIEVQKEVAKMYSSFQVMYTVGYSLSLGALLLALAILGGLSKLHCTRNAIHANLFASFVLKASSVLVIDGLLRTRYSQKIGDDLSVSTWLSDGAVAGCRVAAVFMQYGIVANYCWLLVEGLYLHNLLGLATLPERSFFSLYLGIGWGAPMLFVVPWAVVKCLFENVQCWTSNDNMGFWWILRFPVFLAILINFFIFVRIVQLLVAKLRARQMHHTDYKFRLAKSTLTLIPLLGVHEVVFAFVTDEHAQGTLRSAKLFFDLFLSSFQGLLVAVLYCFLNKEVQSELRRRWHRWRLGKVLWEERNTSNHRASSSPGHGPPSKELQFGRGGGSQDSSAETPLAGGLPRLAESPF

Columns and labels:
[1] = Pharmacokinetic analysis after IV or SC administration in male CD1 mice
Protocol: Pharmacokinetic parameters of the drugs were calculated by methods of model dependence (for data obtained from IV) and model independence (data obtained from SC).

human GLP-1R = target: T1, human GLP-1R (Homo sapiens, UniProt P43220); experiment: In vitro activity on GLP-1R, CRE-luciferase HEK-293 cells; format: cell-based; conditions: read-out: GLP-1R (EC50), average EC50, HEK-293 cells expressing human GLP-1R, 12 hours incubation
T1 construct: expressed in transfected cells
Protocol: (§1) 5000 of HEK-293 cells, which are used in CRE-luciferase system and express human GCGR or GLP-1R stably, were inoculated into 384 well plates according to […] DMEM/10% FBS media/well. […] After incubation, […] of luciferase reagent was added directly to each plate and mixed gently for 2 minutes. The plates were placed into an Elmer Perkin plate reader for reading. Concentration curve of the compound was made by drawing software Prism 5, and the EC50 value was calculated.

human GCGR = target: T2, human GCGR (Homo sapiens, UniProt P47871); experiment: In vitro activity on GCGR, CRE-luciferase HEK-293 cells; format: cell-based; conditions: read-out: GCGR (EC50), average EC50, HEK-293 cells expressing human GCGR, 12 hours incubation
T2 construct: expressed in transfected cells
Protocol: as §1

**Q.** Which results are given for “His-Aib-Gln-Gly-Thr-Phe-Thr-Ser-Asp-Lys(PEG2-PEG2-Glu-CO(CH2)14CH3)-Ser-Lys-Tyr-Leu-Asp-Glu-Arg-Arg-Ala-Gln-Asp-Phe-Val-Gln-Trp-Leu-Leu-Asp-Gly-Gly-Pro-Ser-Ser-Gly-Ala-Pro-Pro-Pro-Ser-NH2 [Compound 19]”?
**A.** clinical adverse effect [1]: no clinical adverse effect; pEC50 (human GLP-1R): 9.85; pEC50 (human GCGR): 9.25
